{
  "source": "paper PMC7375048",
  "about": "“The impact of acute rosiglitazone on insulin pharmacokinetics at the blood‐brain barrier” (Endocrinology, Diabetes & Metabolism, 2020)",
  "key": {"murine BBB [1]": {"tested_on": "murine BBB", "experiment": "Blood-to-brain 125I-insulin transport, multiple-time regression analysis", "type": "in vivo, mouse", "conditions": "CD-1 mice; label = treatment: 10 µg RSG iv 30 min before and/or 1 µg S961 co-injected iv with 125I-insulin; 0.5-10 min; albumin-corrected brain/serum ratio; slope ± SE, n = 6-10/group", "method": "(§1) This experimental set‐up was based on previous studies investigating the acute effect of rosiglitazone. ^35 , ^36\nMice were decapitated, and the brain was collected immediately, dissected into the hypothalamus, olfactory bulb and remaining whole brain and weighed. Blood was centrifuged at 5400g for 10 min and serum collected. Radioactivity in 50 µL of serum and entire brain samples were counted in a gamma counter (Wizard2; Perkin Elmer).\nExposure time is calculated by the formula:(1) Exposure time=∫0tCp(t)dt/Cp(t) where Cp(t) is the level of radioactivity (cpm) in serum at time (t). Exposure time corrects for the clearance of peptide from the blood. […] The slope of the linearity measures K i and is reported with its standard error term. […] For cardiac perfusion studies, formula 2 is employed, using the brain/perfusate ratios and the clock time is used in place of exposure time."}, "[2]": {"tested_on": "human brain endothelial cells", "conditions": "cited from earlier work"}, "murine BBB [3]": {"tested_on": "murine BBB", "experiment": "Transcardiac brain perfusion of 125I-insulin, multiple-time regression analysis", "type": "in vivo, mouse", "conditions": "no serum", "description": "as §1\nThe perfusate was freshly prepared for each study day. Perfusate was collected throughout the study to determine the average cpm/µL of perfusate. After perfusion, the olfactory bulb was collected and the brain dissected into regions (frontal/parietal/occipital cortex, striatum, hypothalamus, hippocampus, thalamus, cerebellum, midbrain and pons/medulla) according to Glowinski and Iversen; ^38 each region was weighed separately. The amount of radioactivity was determined by a gamma counter (Wizard2, Perkin Elmer). Brain/perfusate ratios are calculated by dividing the cpm in a gram of brain by the cpm in a µL of perfusate to yield units of µL/g.\nExposure time is calculated by the formula:(1) Exposure time=∫0tCp(t)dt/Cp(t) where Cp(t) is the level of radioactivity (cpm) in serum at time (t). Exposure time corrects for the clearance of peptide from the blood. […] The slope of the linearity measures K i and is reported with its standard error term. The y‐intercept of the linearity measures V i, the initial volume of distribution in brain at t = 0. ^37 Blasberg, Fenstermacher and Patlak originally described V i as the volume of test substance that rapidly and reversibly exchanges with the plasma (Blasberg 1983). For cardiac perfusion studies, formula 2 is employed, using the brain/perfusate ratios and the clock time is used in place of exposure time."}, "[4]": {"conditions": "CD-1 mice, 10 µg RSG iv 30 min before, ± SE, n = 7-11/group"}},
  "note": "Counter-ions that a name gives are not always drawn.",
  "data": [
    {"smiles": "CN(CCOc1ccc(CC2SC(=O)NC2=O)cc1)c1ccccn1", "note": "(stereo not drawn) [RSG, rosiglitazone maleate]", "values": [
      {"measurement": "125I-insulin BBB transport rate K i, whole brain", "setting": "murine BBB [1]", "result": "1.16 ± 0.23", "unit": "µL/g‐min"},
      {"measurement": "brain‐to‐blood transport relative to blood‐to‐brain influx", "setting": "[2]", "result": "two times greater"},
      {"measurement": "effect on rate of 125I-insulin BBB transport or vascular binding, cardiac perfusion", "setting": "murine BBB [3]; 10 µg RSG pretreatment, whole brain, olfactory bulb or hypothalamus", "result": "no difference"},
      {"measurement": "125I-insulin BBB transport rate K i following cardiac perfusion, whole brain", "setting": "murine BBB [3]; CD-1 mice, 10 µg RSG iv 30 min before, Zlokovic's buffer 2 mL/min, 1-5 min, ± SE, n = 7-11/group", "result": "1.90 ± 0.50", "unit": "µL/g‐min"},
      {"measurement": "125I-insulin BBB transport rate K i following cardiac perfusion, hypothalamus", "setting": "murine BBB [3]; [4]", "result": "4.55 ± 1.65", "unit": "µL/g‐min"},
      {"measurement": "125I-insulin BBB transport rate K i following cardiac perfusion, olfactory bulb", "setting": "murine BBB [3]; [4]", "result": "2.53 ± 0.73", "unit": "µL/g‐min"},
      {"measurement": "125I-insulin vascular binding V i following cardiac perfusion, hypothalamus", "setting": "murine BBB [3]; [4]", "result": "-1.8 ± 5.4", "unit": "µL/g"},
      {"measurement": "125I-insulin vascular binding V i following cardiac perfusion, olfactory bulb", "setting": "murine BBB [3]; [4]", "result": "18.6 ± 2.4", "unit": "µL/g"},
      {"measurement": "125I-insulin vascular binding V i following cardiac perfusion, whole brain", "setting": "murine BBB [3]; [4]", "result": "7.7 ± 1.7", "unit": "µL/g"}
    ]}
  ]
}
